# Apparent affinities of Ab-95 variants for a coronavirus HR2 peptide

Values reported by Engelhart et al. 2022, doi:10.1038/s41597-022-01779-4 (FLAb copy).

Target: peptide PDVDLGDISGINAS, taken from heptad repeat 2 (HR2) of SARS-CoV-2 spike.

The variants keep the heavy chain, the linker and the frameworks of Ab-95 (scFv order VH, a (GGGGS)3 linker, VL).
VH: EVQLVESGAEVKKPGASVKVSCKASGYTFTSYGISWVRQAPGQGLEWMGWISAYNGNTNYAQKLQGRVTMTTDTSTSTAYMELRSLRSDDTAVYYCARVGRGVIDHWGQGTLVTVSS
VL: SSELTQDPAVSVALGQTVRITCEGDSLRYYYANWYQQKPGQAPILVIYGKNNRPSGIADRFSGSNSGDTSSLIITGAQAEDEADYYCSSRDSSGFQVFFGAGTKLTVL

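The starting antibody came from a phage panning campaign against this peptide. Variants in AAYL52 differ from the parent at up to three CDR positions; double and triple changes were sampled at random. The assay is AlphaSeq: two haploid yeast populations carry antibody and antigen on their surface. Binding brings cells together so that they mate, and sequencing counts the barcode pairs among the diploids. Scores were corrected for input abundance and mapped to Kd with protein pairs of known affinity run in the same pool. Each pool was mated in three replicate cultures.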

Variants are written as CDR1, CDR2 and CDR3 of the light chain (limits as in the source). Parent: EGDSLRYYYAN, GKNNRPS, SSRDSSGFQVF. Every variant below is changed at S26 of the VL (sequential numbering). Kd is apparent (estimated from mating counts) and averaged on the log scale over replicates with a signal. Smaller is tighter. "no signal" means that the variant was in the library but no mating with the target was seen in any replicate; the authors take this as a sign of poor binding, and no number exists. As a blank, each scFv also met three strains without target: over library AAYL52, 28% of these pairings were detected, typically at 8.2 µM and seldom below 800 nM. For reference, the parent read 200 nM as the reference entry and 180 nM as a member of this library.

- EGRELRYYYAN, GKYNRPS, SSRDSSGFQVF: 8.6 µM (1 of 3 replicates)
- EGDVLRYYYAN, GKNNRPK, SSRDSSGFQHF: no signal (0 of 3 replicates)
- EGDTLRYYYAN, GKNNRPR, SLRDSSGFQVF: 10 µM (2 of 3 replicates)
- EGDHLRYYYAI, PKNNRPS, SSRDSSGFQVF: no signal (0 of 3 replicates)
- EGDELRYYYAN, GKNNRPR, SPRDSSGFQVF: 10 µM (1 of 3 replicates)
- EGDMLRYYYTN, GKNNRPS, SSRDSSGFQVF: no signal (0 of 3 replicates)
- EGDYGRYYMAN, GKNNRPS, SSRDSSGFQVF: 7.1 µM (2 of 3 replicates)
- YGDTLRYYYAN, GKNNRPS, SSRCSSGFQVF: no signal (0 of 3 replicates)
- EGDYLRYYYAN, GKNNRGS, PSRDSSGFQVF: 3.2 µM (2 of 3 replicates)
- EMDILRYYYAN, GKNNRPS, SSRDSTGFQVF: no signal (0 of 3 replicates)
- EGLYLRYYYAN, GKNNRMS, SSRDSSGFQVF: 3.7 µM (1 of 3 replicates)
- EGDALRYYYAN, GKNNRPS, SSRESSGFQVA: 2.3 µM (3 of 3 replicates)
- EGDFLRYYYAN, GKNPRPS, SSRDSSGFLVF: no signal (0 of 3 replicates)
- EGDWLRYYYAN, GWNNRPS, SSRDSSGFQVA: 490 nM (3 of 3 replicates)
- EGDTLRYYYDN, GKNNWPS, SSRDSSGFQVF: 2.3 µM (1 of 3 replicates)
- EGDPLRYYYAN, GVNNRPS, SSRDCSGFQVF: 16 µM (1 of 3 replicates)
- EGDFLRYYYAN, GKNNWPS, SSRDSSGFQVF: 130 µM (2 of 3 replicates)
- EGDLLRYYYAN, GKNNRPS, PSRDSSGFQVF: 11 µM (2 of 3 replicates)
- EGDQLRYYYAN, GKTNRPS, SSRDSSGFQEF: 4.0 µM (3 of 3 replicates)
- EGDELRYYYAY, GKNRRPS, SSRDSSGFQVF: no signal (0 of 3 replicates)
- EGSQLRYYYAN, GKNNRPS, SSRDVSGFQVF: 1.5 µM (3 of 3 replicates)
- EGDILRYYYAN, GKNTRPS, SSRDSSGFQVF: 1.8 µM (3 of 3 replicates)
- EGDHLRYYYAN, GKNNRGS, SSRDSSGFQVF: 530 nM (3 of 3 replicates)
- EGDPLRYNYAN, GKNNRVS, SSRDSSGFQVF: 920 pM (3 of 3 replicates)
- EGDELWYYYAN, GKNNRPS, SSRDSSGFQVF: 7.8 µM (1 of 3 replicates)
- EGDWLRYYYAN, YKNNRIS, SSRDSSGFQVF: 18 µM (2 of 3 replicates)
- EGDTLRYYYAN, GKNNRPH, SSRDSSKFQVF: 1.0 µM (2 of 3 replicates)
- EGDILRYYGAN, GKNNRPS, SSKDSSGFQVF: 470 nM (3 of 3 replicates)
- EGDALRYYYAN, GKNNRPS, HSRDSSYFQVF: 3.8 µM (3 of 3 replicates)
- EGDNLRYYYAN, DKNNRPS, MSRDSSGFQVF: 210 nM (3 of 3 replicates)
- EGDHLRYYYAN, DKNNRPS, SSRESSGFQVF: 250 nM (2 of 3 replicates)
- EGLFLRYYYAN, GKNNRPS, GSRDSSGFQVF: no signal (0 of 3 replicates)
- EGDDLRYYYAN, GKNNMPS, SSRDSSGPQVF: 8.4 µM (2 of 3 replicates)
- EGDWLRYYYAN, GKNNRPS, SSRDDSGFHVF: 2.7 µM (3 of 3 replicates)
- EGDELRYYDTN, GKNNRPS, SSRDSSGFQVF: 93 nM (3 of 3 replicates)
- EGDILRYNYAN, GKNNRPS, SSRDSSNFQVF: 64 nM (3 of 3 replicates)
- EGWNLRYYGAN, GKNNRPS, SSRDSSGFQVF: 1.6 µM (3 of 3 replicates)
- EGDLLRYYYAN, GKNNRPS, SCRDSSGFQVF: no signal (0 of 3 replicates)
- EGDRLRYYYSN, GKNNRPS, SSRDSSGFQVF: 20 µM (1 of 3 replicates)

The opening 2 entries, copied out:

CDR-L1	CDR-L2	CDR-L3	Kd	detected
EGRELRYYYAN	GKYNRPS	SSRDSSGFQVF	8.6 µM	1 of 3
EGDVLRYYYAN	GKNNRPK	SSRDSSGFQHF	no signal	0 of 3